# Earlier results as cited in US8022056B2, “Compositions and methods for the treatment of cancer” (Tautatis, Inc, priority 2006, dated 2011).
# Test system: breast cancer
# Settings: patients; cited from earlier work
substance,measurement,value
"Herceptin: HER2 antibody trastuzumab (Genentech, Inc.)",responder rates,about 30%
